# Laboratory results: patent publication US20080004302A1, “Novel Compounds” (ASTRAZENECA AB, priority 2006, published 2008)
# Protein sequences, listed by entry. Tags and fused reporters are not part of them.
# UniProt P11712, whole entry: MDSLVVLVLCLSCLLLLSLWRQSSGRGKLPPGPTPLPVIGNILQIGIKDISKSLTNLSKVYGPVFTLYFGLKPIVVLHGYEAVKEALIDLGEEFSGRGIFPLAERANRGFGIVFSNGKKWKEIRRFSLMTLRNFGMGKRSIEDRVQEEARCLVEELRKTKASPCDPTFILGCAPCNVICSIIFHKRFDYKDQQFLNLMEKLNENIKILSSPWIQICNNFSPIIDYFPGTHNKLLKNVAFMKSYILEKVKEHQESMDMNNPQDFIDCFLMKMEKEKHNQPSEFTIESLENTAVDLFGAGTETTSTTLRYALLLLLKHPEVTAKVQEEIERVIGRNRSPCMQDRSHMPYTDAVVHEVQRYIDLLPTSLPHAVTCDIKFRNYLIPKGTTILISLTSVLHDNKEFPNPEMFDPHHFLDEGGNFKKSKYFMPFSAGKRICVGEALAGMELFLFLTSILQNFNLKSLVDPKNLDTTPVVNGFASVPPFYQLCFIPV
# Target: human cytochrome P450 (CYP) 2C9 (Homo sapiens, UniProt P11712)
# Assay: Cytochrome P450 inhibition assay, 2C9
# Conditions: read-out: IC50 range; known inhibitor, positive control; expected IC50 range
substance,measurement,value
Sulphaphenazole,IC50,0.1 to 1 µM
